# Laboratory results as given in PubChem BioAssay AID504707 (The Scripps Research Institute Molecular Screening Center, 2011).
# Only a part is listed here, and it is no random draw. Activity calls are given as the source filed them.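 The calls were made as follows: active = percent activation above the mean of all tested compounds plus 3 SD (cut at about 19% in these data); inactive = the rest.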
# Target: cAMP-dependent protein kinase type I-alpha regulatory subunit (Bos taurus) + cAMP-dependent protein kinase catalytic subunit beta (Mus musculus) (UniProt P00514+P68181)
# Experiment: activators of PKA-R1A holoenzyme, primary screen, biochemical, fluorescence polarization, Cy5-IP20, bovine R1A, mouse PKAc (AID 504707);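 also: higher means more PKAc released from R1A so a rise in polarization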
# Settings: PKA-R1A dissociation, at 11.4 µM, stronger effect = higher value, scaled: DMSO 0%, 113 µM cGMP 100%
row,Compound,activation
1,Cc1ccc(C(=O)NCC2(N(C)C)CCCCC2)o1,inactive: 5.05%
2,CCCOc1ccc(C(=O)NCC2(N(C)C)CCCCC2)cc1OC,inactive: -3.05%
3,CN1CCC(Nc2cccc(F)c2)CC1,inactive: 3.59%
4,O=C(NCC1(N2CCCCC2)CCCCC1)c1cncc(Br)c1,inactive: -17.9%
5,COc1cc(OC)c(C(=O)NCC2(N(C)C)CCCCC2)cc1OC,inactive: -13.7%
6,O=C(NCC1(N2CCOCC2)CCCCC1)c1cc(F)c(F)cc1Cl,inactive: -0.93%
7,CC(C)c1ccc(NC2CCN(C(=O)OC(C)(C)C)CC2)cc1,inactive: 6.8%
8,COc1ccc(CN(CCCl)CCCl)cc1Cl,inactive: -0.58%
9,CN(C)c1cccc(C(=O)NCC2(N3CCCCC3)CCCCC2)c1,inactive: -6.47%
10,O=C(NCC1(N2CCOCC2)CCCCC1)c1cc(=O)[nH]c2ccccc12,inactive: -4.54%
11,COc1cc(C(=O)NCC2(N3CCCCC3)CCCCC2)ccc1OC(F)F,inactive: -2.64%
12,COc1ccc(NC2CCN(C(=O)OC(C)(C)C)CC2)cc1,inactive: -5.44%
13,CC(C)c1ccc(C(=O)NCC2(N3CCOCC3)CCCCC2)cc1,inactive: -5.28%
14,CN1CCN(CCOC(=O)C(O)(c2ccccc2)c2ccccc2)CC1,inactive: -0.63%
15,O=C(NCC1(N2CCCCC2)CCCCC1)c1cccc(C(F)(F)F)c1,inactive: 3.13%
16,CCN1CCC(Nc2ccc(Cl)cc2)CC1,inactive: 0.54%
17,N#CC1(Nc2ccccc2)CCN(CCc2ccccc2)CC1,inactive: -1.31%
18,CSc1ccc(C(=O)NCC2(N3CCOCC3)CCCCC2)cc1,inactive: 3.97%
19,O=C(NCC1(N2CCCCC2)CCCCC1)c1cccc([N+](=O)[O-])c1,inactive: -7.15%
20,O=C(NCC1(N2CCCCC2)CCCCC1)c1ccc(OC(F)F)cc1,inactive: -4.7%
21,CCOC(=O)N1CCC(Nc2cccc(C)c2)CC1,inactive: 2.42%
22,COc1cc(C(=O)NCC2(N(C)C)CCCCC2)ccc1OC(F)F,inactive: -6.96%
23,CCCCOc1ccc(C(=O)NCC2(N3CCOCC3)CCCCC2)cc1,inactive: 6%
24,O=P1(N(CCCl)CCCl)SCCCS1,inactive: 10.1%
25,O=C(NCC1(N2CCCCC2)CCCCC1)c1ccc(F)cc1,inactive: 2.92%

row,Compound,activation
1,CCOC(=O)N1CCC(Nc2ccc(F)cc2)CC1,inactive: 0.43%
2,COc1ccc(NC2CCN(CCc3ccccc3)CC2)c(OC)c1,inactive: -5.57%
3,O=C1CCN(Cc2ccccc2)CC1,inactive: -2.17%
4,CCOc1ccc(C)cc1CN(CCCl)CCCl,inactive: 10.4%
5,N#CC1(Nc2ccccc2)CCN(Cc2ccccc2)CC1,inactive: -2.9%
6,O=C(NCC1(N2CCCCC2)CCCCC1)c1ccc(Cl)s1,inactive: 0.33%
7,O=C(OC1CN2CCC1CC2)C1c2ccccc2Oc2ccccc21 (stereo not given),inactive: -6.77%
8,COc1ccc(Cl)cc1C(=O)NCC1(N2CCOCC2)CCCCC1,inactive: -8.48%
9,CCOC(=O)N1CCC(Nc2ccc(OC)cc2)CC1,inactive: -2.99%
10,O=C(NCC1(N2CCCCC2)CCCCC1)c1ccc(Cl)nc1,inactive: -1.87%
11,Cc1cc(C)cc(N(C(=O)c2ccccc2)C2CCN(C(=O)OC(C)(C)C)CC2)c1,inactive: -15.4%
12,O=C(NCC1(N2CCOCC2)CCCCC1)c1cc2ccccc2o1,inactive: 2.85%
13,CSc1ccccc1C(=O)NCC1(N2CCCCC2)CCCCC1,inactive: -11.8%
14,Cc1cccc(NC2(C#N)CCN(Cc3ccccc3)CC2)c1,inactive: 3.24%
15,COc1ccc(C(=O)NCC2(N3CCCCC3)CCCCC2)cc1,inactive: 7.7%
16,COc1ccc(C(=O)NCC2(N3CCCCC3)CCCCC2)c(OC)c1OC,inactive: -13.8%
17,CC(C)(C)OC(=O)N1CCC(N(C(=O)c2ccccc2)c2ccc(F)cc2)CC1,inactive: 2.11%
18,O=C(NCC1(N2CCCCC2)CCCCC1)c1ccc(=O)[nH]c1,inactive: 6.27%
19,O=C(NCC1(N2CCCCC2)CCCCC1)c1cccs1,inactive: -11.3%
20,CN1CCC(Nc2ccc(Cl)cc2)CC1,inactive: -14.9%
21,COc1cccc(C(=O)N(c2cc(C)cc(C)c2)C2CCN(C(=O)OC(C)(C)C)CC2)c1,inactive: 0.57%
22,COc1cc(OC)cc(C(=O)NCC2(N3CCOCC3)CCCCC2)c1,inactive: -11.1%
23,CCC(CO)(C(=O)OC1CN2CCC1CC2)c1ccccc1 (stereo not given),inactive: -5.99%
24,CC(C)(C)OC(=O)N1CCC(Nc2ccccc2)CC1,inactive: -2.2%
25,O=C(O)C1(Nc2ccccc2)CCN(Cc2ccccc2)CC1,inactive: 1.88%

row,Compound,activation
1,CCCOc1ccc(C(=O)NCC2(N(C)C)CCCCC2)cc1,inactive: -5.12%
2,CCOc1ncccc1C(=O)NCC1(N2CCOCC2)CCCCC1,inactive: 2.42%
3,CN1CCC(Nc2ccc(F)c(Cl)c2)CC1,inactive: 2.15%
4,O=C(NCC1(N2CCCCC2)CCCCC1)c1ccco1,inactive: -6.66%
5,CN(C)c1ccc(C(=O)NCC2(N3CCCCC3)CCCCC2)cc1,inactive: -1.68%
6,Cn1c(=O)[nH]cc(N(CCCl)CCCl)c1=O,inactive: 1.99%
7,Cc1ccccc1NC1(C#N)CCN(Cc2ccccc2)CC1,inactive: -8.61%
8,CCN1CCC(Nc2cccc(F)c2)CC1,inactive: 12.5%
9,Cc1ccc(C(=O)NCC2(N3CCCCC3)CCCCC2)o1,inactive: 6.23%
10,Fc1ccccc1NC1CCN(Cc2ccccc2)CC1,inactive: 5.7%
11,Cc1ccc(NC2(C#N)CCN(Cc3ccccc3)CC2)cc1,inactive: 1.36%
12,CC(=O)N(c1ccccc1)C1CCNCC1,inactive: 3.23%
13,COc1cc(OC)cc(C(=O)NCC2(N3CCCCC3)CCCCC2)c1,inactive: -1%
14,CN(C)C1(CNC(=O)c2cccc(C#N)c2)CCCCC1,inactive: -2.79%
15,c1ccc(CN2CCC(Nc3ccccc3)CC2)cc1,inactive: -3.01%
16,CCCN1CCC(Nc2cc(OC)cc(OC)c2)CC1,inactive: -2.26%
17,Cc1cc(N(CCCl)CCCl)ccc1C=O,inactive: -7.42%
18,N#Cc1ccc(C(=O)NCC2(N3CCCCC3)CCCCC2)cc1,inactive: -2.08%
19,CC(C)(C)OC(=O)N1CCC(N(C(=O)c2ccccc2)c2ccc(Cl)cc2)CC1,inactive: -3.47%
20,O=C(OC1CN2CCC1CC2)C1c2ccccc2C=Cc2ccccc21 (stereo not given),inactive: 6.42%
21,CCOC(=O)N1CCC(Nc2ccc(C)cc2)CC1,inactive: -5.42%
22,N/C(=N\O)c1c(N)no[n+]1[O-],inactive: -4.46%
23,COc1ccc(C(=O)NCC2(N3CCOCC3)CCCCC2)cc1OC,inactive: 1.13%
24,COc1cc(C(=O)NCC2(N3CCOCC3)CCCCC2)cc(OC)c1C,inactive: -8.03%
25,O=C(NCC1(N2CCOCC2)CCCCC1)c1cc(Br)ccc1Cl,inactive: 0.62%
